One molecule from ChEMBL document CHEMBL5154771, “Discovery of Potential Neuroprotective Agents against Paclitaxel-Induced Peripheral Neuropathy” (J Med Chem, 2022) can be followed below.

The subject of assay [1] is Mus musculus. In words: Neuroprotective activity against paclitaxel-induced thermhypesthesia in C57BL/6J mouse neuropathy model assessed as increase in thermal sensation by measuring tail flick latency at 10 to 20 mg/kg, ip administered 1 hr prior to paclitaxel treatment on day 1, 3, 5, 7 and measured weekly for 5 weeks …. The following applies: dose 10-20 mg/kg.
The subject of assay [2] is Mus musculus. In words: Neuroprotective activity against paclitaxel-induced thermhypesthesia in C57BL/6 mouse neuropathy model assessed as increase in thermal sensation by measuring tail flick latency at 5 mg/kg, ip administered 1 hr prior to paclitaxel treatment on day 1, 3, 5, 7 and measured weekly for 5 weeks by tail ….

The source made the active and inactive calls. The calls are words filed in the database; no cut-off is given here.

For `O=P(O)(O)CCN1CCC(Nc2cc(N3CCOCC3)nc(NCc3cn(CCCO)nn3)n2)CC1`, the result in the assay on Mus musculus [1] and in the assay with Mus musculus [2] was Active.
